The list shows a part of the results, in another mix than the full data. Some tests of the compounds listed are not included; inactive here does not mean inactive elsewhere. Activity calls are given as the source filed them.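 The calls were made as follows: active = EGFP signal decrease of at least 30% at 10 µM or well 3 SD below plate mean, unless failing retest; inactive = the rest, including hits failing retest or dose response.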

Sequences of proteins named here, by UniProt entry; tags and fusion partners are left off. Residues count along the entry.
UniProt Q05BA5, 1-1403: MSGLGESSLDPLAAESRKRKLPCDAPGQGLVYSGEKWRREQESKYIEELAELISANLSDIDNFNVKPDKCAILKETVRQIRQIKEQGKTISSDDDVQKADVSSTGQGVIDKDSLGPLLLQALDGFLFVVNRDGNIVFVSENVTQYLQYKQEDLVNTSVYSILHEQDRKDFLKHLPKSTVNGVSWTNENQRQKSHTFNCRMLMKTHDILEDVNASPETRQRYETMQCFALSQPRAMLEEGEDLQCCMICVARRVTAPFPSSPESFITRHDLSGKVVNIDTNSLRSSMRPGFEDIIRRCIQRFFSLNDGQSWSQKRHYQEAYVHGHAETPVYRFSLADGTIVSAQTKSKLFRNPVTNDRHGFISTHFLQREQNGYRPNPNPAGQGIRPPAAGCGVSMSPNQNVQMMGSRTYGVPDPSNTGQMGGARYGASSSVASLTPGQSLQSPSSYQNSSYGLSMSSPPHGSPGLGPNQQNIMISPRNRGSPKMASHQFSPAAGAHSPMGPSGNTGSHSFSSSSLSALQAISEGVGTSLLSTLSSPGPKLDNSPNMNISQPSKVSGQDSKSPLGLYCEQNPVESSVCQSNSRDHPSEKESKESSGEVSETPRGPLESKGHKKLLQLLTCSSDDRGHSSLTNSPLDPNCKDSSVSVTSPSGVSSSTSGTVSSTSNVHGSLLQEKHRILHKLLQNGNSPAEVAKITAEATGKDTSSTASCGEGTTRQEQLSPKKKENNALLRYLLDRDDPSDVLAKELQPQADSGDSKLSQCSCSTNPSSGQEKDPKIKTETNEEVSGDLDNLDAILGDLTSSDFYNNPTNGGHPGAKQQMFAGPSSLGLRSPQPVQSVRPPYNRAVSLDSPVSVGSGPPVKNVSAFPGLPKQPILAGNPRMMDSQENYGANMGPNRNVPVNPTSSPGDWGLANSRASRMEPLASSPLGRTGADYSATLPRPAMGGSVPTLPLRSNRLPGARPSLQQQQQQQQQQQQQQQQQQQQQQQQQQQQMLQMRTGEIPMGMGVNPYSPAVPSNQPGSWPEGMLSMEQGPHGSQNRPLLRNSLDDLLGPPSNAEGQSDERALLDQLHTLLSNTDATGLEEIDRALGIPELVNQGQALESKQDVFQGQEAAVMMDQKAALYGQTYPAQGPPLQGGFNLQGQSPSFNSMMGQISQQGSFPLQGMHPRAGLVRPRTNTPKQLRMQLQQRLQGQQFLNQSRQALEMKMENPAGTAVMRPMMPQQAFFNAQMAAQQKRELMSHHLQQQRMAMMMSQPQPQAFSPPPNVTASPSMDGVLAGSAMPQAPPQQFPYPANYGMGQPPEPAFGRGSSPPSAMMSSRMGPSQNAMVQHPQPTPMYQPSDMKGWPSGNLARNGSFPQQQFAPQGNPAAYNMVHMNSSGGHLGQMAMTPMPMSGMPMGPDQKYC

This is an account of results in PubChem BioAssay AID1984 (Sanford-Burnham Center for Chemical Genomics, 2009).

In this assay the target is p/CIP-EGFP fusion (nuclear receptor coactivator 3, mouse) (UniProt Q05BA5). Description: compounds lowering mouse p/CIP (NCOA3) protein levels – fluorescence, F442A cells, EGFP fusion, primary screen (AID 1984). Particulars: 16 h, at 10 µM, hits give high values.
On to `CC(C)N1C(=O)CC2(CCN(CCOC(=O)C(O)(c3ccccc3)c3ccccc3)CC2)C1=O`, for which the decrease of EGFP signal is inactive: 5.3%. With `CCN(CC)CC(C)C(C)OC(=O)C(O)(c1ccccc1)c1ccccc1` (centres undefined), the decrease of EGFP signal is inactive: 7.4%. For the compound `COc1cc(SC)ccc1C(=O)NCC1(N(C)C)CCCCC1`, the decrease of EGFP signal was inactive: 0.4%. With `Cc1ccc(C(=O)NCC2(N3CCCCC3)CCCCC2)cc1` the figure was inactive: -7.3%.

On to `O=C(NCC1(N2CCCCC2)CCCCC1)c1cc([N+](=O)[O-])ccc1Cl`, for which the decrease of EGFP signal was inactive: -3.8%. Next, `CN1[C@@H]2CC[C@H]1CC(OC(=O)C(O)(c1ccccc1)c1ccccc1)C2` (some centres undefined): inactive: 8.1%. As for `C=CCN1CCN(CCOC(=O)C(O)(c2ccccc2)c2ccccc2)CC1`, the decrease of EGFP signal was inactive: -5.7%. Next, `O=C(NCC1(N2CCCCC2)CCCCC1)c1cc(F)c(F)cc1Cl`: inactive: -7.6%. For the compound `CCN1CCCC(OC(=O)C2(O)c3ccccc3C=Cc3ccccc32)C1` (centres undefined), the decrease of EGFP signal is inactive: -4.5%.

`Cc1cc(C(=O)NCC2(N3CCCCC3)CCCCC2)ccc1[N+](=O)[O-]`: the decrease of EGFP signal is inactive: -15.2%.

On to `O=C(NCC1(N2CCCCC2)CCCCC1)c1cccc(Br)c1`, for which the decrease of EGFP signal is inactive: -3.9%. Turning to `COc1ccc(C(=O)NCC2(N(C)C)CCCCC2)cc1`, the decrease of EGFP signal is inactive: -1.6%.

Consider `Cc1ccccc1C(=O)NCC1(N2CCCCC2)CCCCC1`, for which the decrease of EGFP signal was inactive: -14.9%. With `CN(C)c1ccc(C(=O)NCC2(N(C)C)CCCCC2)cc1` the figure was inactive: -8.9%; with `CN(C)C1CCCC1OC(=O)C(O)(c1ccccc1)c1ccccc1` (centres undefined), inactive: -19.9%. Regarding `COc1cccc(C(=O)NCC2(N3CCCCC3)CCCCC2)c1`, the decrease of EGFP signal was inactive: -11.8%.

For `COc1ccc(Cl)cc1C(=O)NCC1(N(C)C)CCCCC1`, the decrease of EGFP signal is inactive: -12.7%.

Consider `O=C(NCC1(N2CCCCC2)CCCCC1)c1cccc(Cl)c1`, for which the decrease of EGFP signal was inactive: 11%. Next, `CN(C)C1(CNC(=O)c2ccc(Br)cc2)CCCCC1`: inactive: -10.2%; `COc1cc(C(=O)NCC2(N(C)C)CCCCC2)c([N+](=O)[O-])cc1OC`: inactive: -9.7%; `COc1ccc(Br)c(C(=O)NCC2(N3CCCCC3)CCCCC2)c1`: inactive: 8.8%. Regarding `CN(C)c1cccc(C(=O)NCC2(N(C)C)CCCCC2)c1`, the decrease of EGFP signal is inactive: 3.5%. Next, `CC(C)Oc1ccc(C(=O)NCC2(N(C)C)CCCCC2)cc1`: inactive: -8%; `O=C(OC1CN2CCC1CC2)C(CO)(c1ccccc1)c1ccccc1` (centres undefined): inactive: 6.3%.
